Source: patent publication US7122558B2 (priority 2000, dated 2006)

Amino acid sequences for entries named in this document (tags omitted).
UniProt P20309, whole entry, looked up: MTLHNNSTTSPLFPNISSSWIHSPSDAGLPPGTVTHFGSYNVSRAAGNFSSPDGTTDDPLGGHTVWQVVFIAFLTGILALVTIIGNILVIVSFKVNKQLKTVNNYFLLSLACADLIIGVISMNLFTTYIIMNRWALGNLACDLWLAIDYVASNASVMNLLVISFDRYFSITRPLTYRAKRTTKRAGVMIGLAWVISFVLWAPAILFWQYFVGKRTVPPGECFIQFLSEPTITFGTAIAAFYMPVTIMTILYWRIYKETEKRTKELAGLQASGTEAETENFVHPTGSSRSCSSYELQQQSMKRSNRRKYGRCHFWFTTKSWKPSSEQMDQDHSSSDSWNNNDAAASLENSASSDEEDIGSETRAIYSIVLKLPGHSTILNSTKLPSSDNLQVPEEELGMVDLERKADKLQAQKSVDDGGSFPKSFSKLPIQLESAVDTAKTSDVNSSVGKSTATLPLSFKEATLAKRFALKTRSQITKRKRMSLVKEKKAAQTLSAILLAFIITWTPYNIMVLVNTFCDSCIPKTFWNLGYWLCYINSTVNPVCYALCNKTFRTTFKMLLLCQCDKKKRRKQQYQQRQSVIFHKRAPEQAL

Target: human muscarinic receptors M3 (Homo sapiens, UniProt P20309)
Assay: binding of [3H]-NMS to human muscarinic receptors M3 (CHO-K1 membranes)
Conditions: inhibition of [3H]-NMS binding, compound at 1.00E−08 M (10 nM), 25° C

C=CCC(O)(C(=O)O[C@H]1C[N+]2(CCCc3cccs3)CCC1CC2)c1cccs1.O=C([O-])C(F)(F)F (stereo partly shown)
% INHIBITION concentration: 1.00E−08 M: 39.0%
